Assay results from paper PMC10049495, “Antitumor Activity of PEGylated and TEGylated Phenothiazine Derivatives: Structure–Activity Relationship” (International Journal of Molecular Sciences, 2023).

Assays:
[1] = test system: normal human dermal fibroblasts (NHDF); experiment: Cytotoxicity MTS assay on normal fibroblasts; format: cell-based; details: 0.2 mM, 48 h
Method: (§1) Cell culture: NHDF, HeLa, HOS, HepG2, MCF7, MeWo and CT-26 cells were cultivated in complete Eagle’s Minimal Essential Medium alpha (aMEM) containing a 1% Penicillin–Streptomycin–Amphotericin B mixture and a 10% fetal bovine serum under 5% CO2 humidified atmosphere at 37 °C. LN-229 cells were cultivated in DMEM with a 1% Penicillin–Streptomycin–Amphotericin B mixture and a 5% fetal bovine serum. U-118 cells were cultivated in DMEM with a 1% Penicillin–Streptomycin–Amphotericin B mixture and a 10% fetal bovine serum. StemPro™ Accutase™ Cell Dissociation Reagent was used for passaging MeWo and U-118 cells, and TrypLE Express was used for all other cell lines. […]
(§2) Cytotoxicity MTS assay: In order to perform the MTS assay, cells were placed in culture-treated 96-well plates at densities of 5 × 10^3 cells/well (NHDF and CT-26), 7 × 10^3 cells/well (MCF7) and 10 × 10^3 cells/well (HOS, HeLa, HepG2, MeWo, LN-229, U-118) in 100 μL of a MEM medium/well and allowed to adhere for 24 h. […] Before the final reading, 20 μL CellTiter 96® Aqueous One Solution/well was added, and the plates were incubated for 1–4 h. Finally, the absorbance was recorded with a microplate reader at λ = 490 nm. […] Graphical data were expressed as means ± standard error of the mean (S.E.M.). […]

[2] = test system: liver cancer (HepG2) cells; experiment: Cytotoxicity MTS assay on HepG2; format: cell-based, human; details: HepG2, 0.2 mM, 48 h
Method: as §1, §2

Substance: 10-(poly(ethylene glycol))-10H-phenothiazine-3-carbaldehyde [PPF]
- cell viability [1]: 78%
- cell viability [2]: 15%
